## Yeast mating assay 1: variants of the scFv Ab-14

Values reported by Engelhart et al. 2022, doi:10.1038/s41597-022-01779-4 (FLAb copy).

Target: peptide PDVDLGDISGINAS, taken from heptad repeat 2 (HR2) of SARS-CoV-2 spike.

Each scFv is VH, a 15-residue (Gly4Ser)3 linker, VL, as in the parent Ab-14, and differs from it in the CDRs of the light chain only.
VH: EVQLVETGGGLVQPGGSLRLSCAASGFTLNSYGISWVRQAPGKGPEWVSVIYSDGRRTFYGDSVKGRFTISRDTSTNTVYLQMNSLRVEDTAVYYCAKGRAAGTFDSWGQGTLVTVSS
VL: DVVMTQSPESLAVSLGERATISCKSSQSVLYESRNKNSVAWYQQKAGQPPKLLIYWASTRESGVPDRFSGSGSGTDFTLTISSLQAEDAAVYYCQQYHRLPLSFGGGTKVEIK

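The parent was found by panning a naive human phage display library on the peptide. Variants in AAYL50 differ from the parent at up to three CDR positions; double and triple changes were sampled at random. AlphaSeq pools MATa yeast showing the antibodies with MATalpha yeast showing the peptide. After mating in shaken culture at 30 °C for 16 h, diploids were selected and their barcode pairs sequenced. The ratio of observed to expected reads was calibrated, replicate by replicate, on BCL2-family standards whose Kd was known from biolayer interferometry. There are three technical replicates.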

Positions count from residue 1 of the parent VL; S25E puts E in place of S. Affinities are written as log10 Kd with Kd in nM; a lower number is a better binder. A pair that was not seen in that replicate is written "nd"; this usually means weak binding, but a binder can also be missed. Background: pairings of library AAYL50 with three empty control strains gave a value in 18% of cases (median 4.19, 5th percentile 2.99). Values in that range, when seen in few replicates, are hard to tell from nonspecific mating. The control count says in how many pairings with the empty strains this scFv gave a signal, with their mean in brackets.

changes	log10 Kd, replicates	empty controls
S25E+E32P+W56C	3.06 2.40 3.53	0/9
V29N+Q96P+S103Q	0.73 1.04 0.90	2/9 (3.64)
V29P+W56S+A57S	-0.15 0.21 0.02	5/9 (5.25)
S25K+N35G+S103R	nd nd nd	0/9
V29C+K36G+S103P	1.36 1.45 1.59	3/9 (4.51)
T59Y+E61M	5.43 nd nd	4/9 (4.09)
R34G+V39K+E61C	4.15 nd 4.20	2/9 (5.13)
K24W+S26N+Q95C	nd 2.61 nd	1/9 (2.22)
V39T+Q96M+R99K	6.57 4.14 4.58	2/9 (4.23)
R34C+Q95T	1.13 1.32 1.24	0/9
S28K+E32D+Q96C	0.93 1.01 1.21	2/9 (4.28)
N37S+T59D+Q95C	4.21 3.46 4.51	7/9 (4.84)
V29C+R34A+Q95W	0.65 0.94 0.86	3/9 (4.88)
W56Q+S58A+L102W	nd nd nd	2/9 (3.90)
Q27E+Y31T+P101W	1.83 1.59 1.48	2/9 (4.32)
S28Q+T59V+L100T	2.37 2.05 2.65	3/9 (4.27)
N37H+W56S+Q96S	0.01 0.41 0.14	1/9 (5.46)
S25C+L30S+A57M	1.15 1.59 1.43	1/9 (2.09)
S26R+L30W+N37V	3.85 nd 2.04	0/9
V39A+A57F+S58I	nd 4.21 nd	0/9
Q27P+V29P+S33I	1.33 1.80 1.42	0/9
Q95R+Y97D+L100Y	1.39 1.49 1.56	6/9 (4.40)
W56R+R99Y+P101A	nd nd nd	1/9 (4.44)
R34C+N35E+V39K	nd nd nd	1/9 (3.75)
S33Q+T59Q+Q96A	2.64 3.43 nd	0/9
K36E+S38C+T59A	3.56 3.10 4.23	2/9 (3.70)
R34F+Q96E	nd nd nd	0/9
E32Y+V39F+H98Q	nd 3.55 nd	1/9 (3.56)
K36A+A40E+T59F	nd 3.37 nd	0/9
S26K+W56E+E61W	-0.08 0.25 0.04	0/9
E32S+S38R+H98M	2.75 3.23 3.01	0/9
Q27F+Q96P+S103P	nd nd nd	2/9 (4.67)
N37R+A57C+Q96I	3.42 3.21 3.54	3/9 (3.98)
R34C+Y97L	4.29 2.57 3.03	0/9
S25V+L30D+R60F	nd nd nd	2/9 (4.57)
N35E+S58F+P101S	nd nd nd	0/9
R34V+N35F+W56D	-0.34 0.00 -0.07	0/9
V39G+A57D+H98K	nd nd nd	0/9
Y31F+W56H+A57W	nd nd nd	0/9

A selection of 7 entries from above:

changes	log10 Kd, replicates	empty controls
V29N+Q96P+S103Q	0.73 1.04 0.90	2/9 (3.64)
N35E+S58F+P101S	nd nd nd	0/9
N37S+T59D+Q95C	4.21 3.46 4.51	7/9 (4.84)
V29C+R34A+Q95W	0.65 0.94 0.86	3/9 (4.88)
V39G+A57D+H98K	nd nd nd	0/9
T59Y+E61M	5.43 nd nd	4/9 (4.09)
W56Q+S58A+L102W	nd nd nd	2/9 (3.90)